Measured values taken from patent US20230121313A1 (priority 2019, published 2023).
Entries after “also recorded” stand apart in the source; their conditions may differ.

Columns and labels:
[1] = system: NMDA receptor; settings: cited from earlier work
[2] = system: female Sprague-Dawley rats; experiment: Single dose neurotoxicity study, intranasal esketamine HCl (clinical observations, brain histopathology, toxicokinetics); settings: for Brain histopathology (neuronal necrosis / Olney lesions in PCG/RSC): esketamine HCl intranasal up to 72 mg, 48 and 96 h post-dose
[3] = system: female Sprague-Dawley rats; experiment: 14-day repeated dose neurotoxicity study, intranasal esketamine HCl (clinical observations, brain histopathology, toxicokinetics); settings: for Brain histopathology (neuronal necrosis / Olney lesions in PCG/RSC): 14-day study, esketamine HCl intranasal up to 54 mg/day, (+)MK-801 maleate single 1 mg/kg sc, 48 h after last dose

(+)MK-801 maleate [reference compound]
Potency of the (+)-enantiomer relative to the (−)-enantiomer [1]: 7 times
Body weight loss within the first 48 hours after treatment ([2]; (+)MK-801 maleate 1 mg/kg sc): 13-14%
Severity grade of neuronal necrosis in PCG/RSC (most lesions) ([2]; (+)MK-801 maleate 1 mg/kg sc, both studies): moderate or marked (grade 3 or 4)
Animals (of 30 females) with lesions scored marked ([2]; (+)MK-801 maleate 1 mg/kg sc, single dose study): 25
Mortality ([2]; (+)MK-801 maleate single 1 mg/kg sc, single dose and repeated dose study): No mortality was noted
Maximum tolerated dose (MTD) for a single subcutaneous injection ([2]; dose-range finding study, female Sprague-Dawley rats 13-14 weeks): 1 mg/kg body weight
Brain histopathology (neuronal necrosis / Olney lesions in PCG/RSC) ([2]; single dose study, (+)MK-801 maleate 1 mg/kg sc): neuronal necrosis was observed; also recorded: neuronal necrosis in the PCG/RSC of all animals
Brain histopathology (neuronal necrosis / Olney lesions in PCG/RSC) ([2]; single dose study, (+)MK-801 maleate 1 mg/kg sc, listed as (+)MK801 maleate): induced neurodegenerative lesions
Brain histopathology (neuronal necrosis / Olney lesions in PCG/RSC) ([3]; 1 mg/kg): presence
Brain histopathology (neuronal necrosis / Olney lesions in PCG/RSC) ([3]; listed as (+)MK-801, 1 mg/kg): presence; also recorded: showed neuronal necrosis
Animals (of 12) with lesions scored marked ([3]; (+)MK-801 maleate 1 mg/kg sc, repeated dose study): 7
